Experimental data reported in PMC10226041, “Discovery of Ruthenium(II) Metallocompound and Olaparib Synergy for Cancer Combination Therapy” (Journal of Medicinal Chemistry, 2023).

Tested on: MDA-MB-231 cells
Assay: MTT cell viability assay, MDA-MB-231 cells
Format: cell-based, human
Conditions: MDA-MB-231, 72 h, Olaparib 10 μM
Procedure: Following treatment, solutions were removed, thiazolyl blue tetrazolium bromide (MTT, 0.5 mg/mL) reagent was added to the cells, and plates were incubated for 4 h. The reduced purple formazan crystals were solubilized with 100 μL of DMSO, and the absorbance at 570 nm (620 nm as reference wavelength) was measured using a microplate reader. The average in percent reduction of cell viability was expressed relative to untreated control cells. The combinatorial effect was evaluated by the generation of the compound dose–response curve and a shift of the IC50 value in the presence or absence of Olaparib (graphed and calculated using GraphPad Prism software).

O=c1c(O)c(-c2ccc(O)c(O)c2)oc2cc(O)cc(O)c12 [Quercetin, reference compound]
fold shift = IC50 (−OLAP)/IC50 (+OLAP): >14.1
